Activity calls are given as the source filed them. No cut-off for these calls is given here.
Target: P2Y purinoceptor 1 (Meleagris gallopavo) (UniProt P49652)
Test: In vitro agonist activity at P2Y1 receptor in turkey erythrocyte membranes; No effect at 100 uM.
Format: functional, cell membranes

Chains of the proteins cited; added tags and fusions are not shown. Lines headed by an entry give the natural chain unless they say otherwise; changes in a name come on top.
UniProt P49652: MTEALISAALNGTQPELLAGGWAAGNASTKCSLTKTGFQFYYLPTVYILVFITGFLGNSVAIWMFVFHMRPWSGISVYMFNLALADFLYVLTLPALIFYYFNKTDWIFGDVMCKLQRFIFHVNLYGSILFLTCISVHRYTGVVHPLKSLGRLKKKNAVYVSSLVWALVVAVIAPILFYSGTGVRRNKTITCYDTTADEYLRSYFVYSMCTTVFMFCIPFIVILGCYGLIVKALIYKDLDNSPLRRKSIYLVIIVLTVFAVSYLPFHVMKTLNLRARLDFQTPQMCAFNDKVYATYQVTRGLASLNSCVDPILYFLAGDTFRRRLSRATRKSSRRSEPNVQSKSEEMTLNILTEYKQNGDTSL

Increase: inactive
SMILES: CNc1ncnc2c1ncn2[C@H]1C[C@H](OP(=O)(O)O)[C@@H](COP(=O)(O)O)O1

— ChEMBL document CHEMBL1132720 (J Med Chem, 1999)
